Earlier results as cited in patent US20040176357A1, “2 Methyl-thieno-benzodiazepine lyophilized formulation” (priority 2001, published 2004).

System: serotonin 5-HT2A/2B/2C, 5-HT3, 5-HT6, dopamine D1/D2/D3/D4/D5, muscarininic cholinergic (m1-m5), alphal-adrenergic, and histamine H1 receptors
Conditions: all listed receptors; cited from earlier work

SMILES: Cc1cc2c(s1)Nc1ccccc1N=C2N1CCN(C)CC1 [olanzapine, 2-methyl-4-(4-methyl-1-piperazinyl)-10H-thieno[2,3-b][1,5]benzodiazepine]
- receptor affinity in vitro: nanomolar receptor affinity
